Test results reported in patent US12583818B2 (DAEGU-GYEONGBUK MEDICAL INNOVATION FOUNDATION, priority 2020, dated 2026).

By UniProt entry, the sequences of proteins in these tests, tags left out.
UniProt Q13526, whole entry: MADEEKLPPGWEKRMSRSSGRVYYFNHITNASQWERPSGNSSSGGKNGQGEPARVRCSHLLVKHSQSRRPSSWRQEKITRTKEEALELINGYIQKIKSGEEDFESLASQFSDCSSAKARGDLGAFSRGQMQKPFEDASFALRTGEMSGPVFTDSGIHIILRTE

How the values were obtained:
Pin1 = Pin1 (Homo sapiens, UniProt Q13526); assay: Evaluation of Pin1 enzyme inhibitory activity (Sensolyte Green Pin1 assay kit); details: read-out: Pin 1 inhibition; concentration at which the Pin1 enzyme activity is inhibited; 2 hours at room temperature, fluorescence 490 nm/520 nm
Protocol: In order to evaluate the Pin1 enzyme inhibitory activity of the compound represented by formula 1 according to the present invention, the following experiment was performed, and the results are shown in Table 2 below.
The enzyme activity of Pin1 protein was measured using a sensolyte Green Pin1 assay kit of Anaspec. The substrate was diluted in a buffer at a ratio of 1:100 to prepare a concentration of 1 μM, and the protein was diluted in a buffer at a ratio of 1:20 to prepare a concentration of 50 μg/ml. In addition, a developing solution was prepared by diluting thereof in a buffer at a ratio of 1:100.
The compound prepared in each example was diluted with DMSO and prepared at a concentration of 100 μM, 10 μM, 1 μM or 0.1 μM using a buffer. After sequentially adding 10 μl of the compound prepared in each Example diluted to four concentrations according to the above method, 10 μl of Pin1 protein, and 30 μl of the developing solution to each well of a black 96-well plate, […]. Finally, 50 μl of the substrate was added to each well of the plate, and the enzyme reaction was carried out after shaking the plate for 10 seconds.
Then, the plate was incubated for 2 hours at room temperature in an environment without light, and the fluorescence values at 490 nm/520 nm wavelength were measured using a device of Synergy Neo (Tecan). […]

[1] = test system: A2780 cells (ovarian cancer cells); assay: Cell viability of A2780 cells (Cell-titer Glo); details: read-out: A2780, culture for 3 days
Protocol: (§1) In order to confirm the inhibitory effect of the compound represented by formula 1 according to the present invention on the growth of MCF7, MCF7-SP, A2780 or A2780-SP cells, the following experiment was performed, and the results are shown in Tables 4 and 5 below.
In addition, A2780 cells (ovarian cancer cells) were plated in a 96-well plate at the density of 3000 viable cells per well, and cultured in RPMI-1640 medium supplemented with 10% FBS and 1% penicillin/streptomycin.
(§2) On the next day of culture, the cells were treated with the compound of Examples 57, and 69 to 144, followed by culture for 3 days. Cell viability was evaluated by Cell-titer Glo (Promega, WC, USA), and luciferase activity was detected using a Tecan plate reader (Biocompare, USA).

[2] = test system: A2780-SP cells (ovarian cancer stem cells); assay: Sphere cell viability of A2780-SP cells (Cell-titer Glo); details: read-out: A2780-SP, culture for 8 days
Protocol: as §1
On the other hand, A2780-SP cells (ovarian cancer stem cells) were plated in an Ultra-Low Attachment round bottom 96-well plate (corning) at the density of 1,500 viable cells per well, and cultured in cancer stem cell medium. The cancer stem cell medium is composed of the neurobasal medium supplemented with 20 ng/ml of bFGF, 10 ng/ml of EGF, […] of amphotericin B, HEPES, Glutamax and B27.
as §2, with “for 8” for “for 3”, “days. The medium containing the compound was added thereto once again on the 4th day. Sphere cell” for “days. Cell”

Q: How did the IC50 (Pin1) turn out when `O=S(=O)(NCCCc1c[nH]c2ccc(Cl)cc12)c1ccc(Nc2cccc(N3CCNCC3)c2)cc1` was run?
A: < 1 µM

Q: And the IC50 [1]?
A: 1 to 10 µM

Q: What about the IC50 [2] of the same molecule?
A: 1 to 10 µM
